# Measured values: ChEMBL document CHEMBL1137610, “Development of novel enkephalin analogues that have enhanced opioid activities at both mu and delta opioid receptors” (2007)
# The chains behind the UniProt entries cited, without tags or fusion partners.
# UniProt P41143, whole entry: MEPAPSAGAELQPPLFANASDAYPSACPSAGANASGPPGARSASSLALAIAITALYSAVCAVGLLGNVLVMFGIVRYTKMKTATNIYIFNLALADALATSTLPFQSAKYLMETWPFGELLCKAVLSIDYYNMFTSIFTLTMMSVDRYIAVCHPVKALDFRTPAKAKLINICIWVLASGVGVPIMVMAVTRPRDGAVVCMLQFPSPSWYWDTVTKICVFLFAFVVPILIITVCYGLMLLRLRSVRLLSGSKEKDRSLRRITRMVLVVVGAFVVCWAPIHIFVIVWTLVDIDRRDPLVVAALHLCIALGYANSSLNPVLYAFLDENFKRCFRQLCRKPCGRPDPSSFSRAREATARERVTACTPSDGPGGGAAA
# UniProt P33535, whole entry: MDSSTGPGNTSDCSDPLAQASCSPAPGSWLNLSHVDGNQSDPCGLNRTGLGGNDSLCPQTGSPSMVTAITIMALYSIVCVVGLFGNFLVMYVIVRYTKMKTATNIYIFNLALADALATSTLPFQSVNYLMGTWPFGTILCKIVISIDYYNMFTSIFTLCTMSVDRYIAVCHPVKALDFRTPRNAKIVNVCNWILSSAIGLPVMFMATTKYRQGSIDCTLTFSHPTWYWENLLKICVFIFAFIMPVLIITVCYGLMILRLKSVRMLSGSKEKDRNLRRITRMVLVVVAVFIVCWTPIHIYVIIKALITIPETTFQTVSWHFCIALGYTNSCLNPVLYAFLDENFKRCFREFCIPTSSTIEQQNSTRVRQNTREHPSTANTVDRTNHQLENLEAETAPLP
# Some compounds may have been tested in ways that are not shown here.
# Tests used:
# [1] = target: Delta-type opioid receptor (Homo sapiens, UniProt P41143); assay: Agonist activity at human delta-opioid receptor expressed in CHO cells after 90 mins by [35S]GTP-gamma-S assay
# [2] = target: Mu-type opioid receptor (Rattus norvegicus, UniProt P33535); assay: Agonist activity at rat mu-opioid receptor expressed in CHO cells after 90 mins by [35S]GTP-gamma-S assay
compound,measurement,setting,value
C[C@@H](NC(=O)[C@@H](N)Cc1ccc(O)cc1)C(=O)NCC(=O)N[C@@H](Cc1ccccc1)C(=O)NC1CCN(CCc2ccccc2)CC1,EC50,[1],510 nM
same,EC50,[2],125 nM
